Measurements published in patent publication EP4635500A1, “THERAPEUTIC AGENT FOR BACTERIAL INFECTION” (Sumitomo Pharma Co., Ltd., priority 2022, dated 2024).

Sequences of proteins named here, by UniProt entry; tags and fusion partners are left off. Residues count along the entry.
UniProt Q9F663, 25-293 D178Y: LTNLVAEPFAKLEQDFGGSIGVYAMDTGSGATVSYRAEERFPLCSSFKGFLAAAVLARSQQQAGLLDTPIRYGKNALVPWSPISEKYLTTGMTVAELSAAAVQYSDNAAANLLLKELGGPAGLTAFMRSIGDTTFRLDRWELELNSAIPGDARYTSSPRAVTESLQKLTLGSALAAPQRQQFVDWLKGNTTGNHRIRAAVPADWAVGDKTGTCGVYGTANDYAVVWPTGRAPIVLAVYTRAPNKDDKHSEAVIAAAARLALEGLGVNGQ
UniProt Q9F663, 25-293 D178Y/H272Y: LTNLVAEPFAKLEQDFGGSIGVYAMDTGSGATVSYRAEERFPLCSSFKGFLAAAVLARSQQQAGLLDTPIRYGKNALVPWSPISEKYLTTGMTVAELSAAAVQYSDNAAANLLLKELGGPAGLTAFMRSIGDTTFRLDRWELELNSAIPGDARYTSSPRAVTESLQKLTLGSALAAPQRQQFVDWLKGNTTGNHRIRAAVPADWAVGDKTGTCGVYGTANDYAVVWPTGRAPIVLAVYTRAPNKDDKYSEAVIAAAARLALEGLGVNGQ

What was measured:
[1] = biological target: KPC-33 (Klebsiella pneumoniae, UniProt Q9F663, D178Y); assay: biochemical
[2] = biological target: KPC-31 (Klebsiella pneumoniae, UniProt Q9F663, D178Y/H272Y); assay: biochemical

Molecule O=C(NC1CCNCC1)[C@@H]1CC[C@@H]2CN1C(=O)N2OS(=O)(=O)O [Relebactam, relebactam] has a Ki [1] of 74 ± 29.1 nM and a Ki [2] of 862 ± 75.3 nM.
